From ChEMBL document CHEMBL1938391, “Design and synthesis of novel photoaffinity probes for study of the target proteins of oleanolic acid” (Bioorg Med Chem Lett, 2012) come the findings set out here.

The assay has as its target T1, Glycogen phosphorylase, muscle form (Oryctolagus cuniculus, UniProt P00489).
T1 sequence (P00489 whole entry): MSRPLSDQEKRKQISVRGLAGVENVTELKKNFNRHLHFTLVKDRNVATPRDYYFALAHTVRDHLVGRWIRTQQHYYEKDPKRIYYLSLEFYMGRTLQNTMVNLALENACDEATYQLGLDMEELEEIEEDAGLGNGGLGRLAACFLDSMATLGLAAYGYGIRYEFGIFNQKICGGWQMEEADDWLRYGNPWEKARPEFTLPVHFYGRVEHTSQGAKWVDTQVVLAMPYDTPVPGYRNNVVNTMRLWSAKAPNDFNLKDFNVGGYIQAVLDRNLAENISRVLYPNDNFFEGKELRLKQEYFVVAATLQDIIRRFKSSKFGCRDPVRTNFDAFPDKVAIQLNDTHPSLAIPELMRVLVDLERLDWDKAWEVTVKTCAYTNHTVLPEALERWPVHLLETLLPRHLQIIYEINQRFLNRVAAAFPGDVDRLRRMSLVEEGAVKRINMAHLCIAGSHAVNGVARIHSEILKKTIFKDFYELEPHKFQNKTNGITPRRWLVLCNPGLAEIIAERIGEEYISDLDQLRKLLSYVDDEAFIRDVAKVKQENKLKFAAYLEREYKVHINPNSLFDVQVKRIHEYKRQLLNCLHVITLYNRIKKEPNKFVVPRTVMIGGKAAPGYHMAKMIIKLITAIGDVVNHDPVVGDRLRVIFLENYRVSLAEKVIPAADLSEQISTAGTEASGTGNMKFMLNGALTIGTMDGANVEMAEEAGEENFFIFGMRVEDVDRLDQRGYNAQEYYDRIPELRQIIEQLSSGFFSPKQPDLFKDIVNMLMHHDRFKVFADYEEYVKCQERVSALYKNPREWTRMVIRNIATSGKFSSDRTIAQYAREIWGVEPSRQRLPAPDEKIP
As to the kind of experiment: Inhibition of rabbit muscle glycogen phosphorylase a assessed as release of phosphate from glucose-1-phosphate after 25 mins using malachite green staining.

By IC50 is commonly meant the point on the concentration scale where inhibition reaches its midpoint. Consider `CC1(C)CC[C@]2(C(=O)O)CC[C@]3(C)C(=CC[C@@H]4[C@@]5(C)CC[C@H](O)C(C)(C)[C@@H]5CC[C@]43C)[C@@H]2C1` [OLEANOLIC_ACID], for which the IC50 came out at 22.9 µM.
